For orientation: IC50 means the concentration needed to halve the response being measured.

For the test, the target named is T1, SirT1 (Homo sapiens, UniProt Q96EB6).
T1 sequence (Q96EB6 1-747): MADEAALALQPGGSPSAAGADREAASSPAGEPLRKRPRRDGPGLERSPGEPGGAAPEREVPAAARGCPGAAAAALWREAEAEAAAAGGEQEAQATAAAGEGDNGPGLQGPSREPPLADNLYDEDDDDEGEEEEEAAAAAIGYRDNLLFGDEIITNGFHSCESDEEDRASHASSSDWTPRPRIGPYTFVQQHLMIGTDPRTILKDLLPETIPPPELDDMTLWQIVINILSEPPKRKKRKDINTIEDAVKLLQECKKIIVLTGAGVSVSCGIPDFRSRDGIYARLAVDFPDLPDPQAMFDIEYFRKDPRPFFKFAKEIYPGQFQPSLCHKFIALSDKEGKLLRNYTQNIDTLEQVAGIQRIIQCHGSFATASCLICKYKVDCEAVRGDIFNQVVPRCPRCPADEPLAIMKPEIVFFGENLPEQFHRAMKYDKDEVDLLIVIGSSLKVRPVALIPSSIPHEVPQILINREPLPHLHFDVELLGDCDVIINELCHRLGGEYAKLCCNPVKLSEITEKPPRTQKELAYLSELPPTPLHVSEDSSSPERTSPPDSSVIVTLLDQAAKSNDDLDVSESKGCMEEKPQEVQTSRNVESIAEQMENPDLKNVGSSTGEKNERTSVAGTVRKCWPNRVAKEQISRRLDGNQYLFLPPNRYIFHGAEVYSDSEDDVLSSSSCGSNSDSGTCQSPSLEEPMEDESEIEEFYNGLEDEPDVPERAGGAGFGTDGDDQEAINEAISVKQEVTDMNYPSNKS
Description: SirT1 p53-382 enzymatic deacetylation assay (fluorogenic Fluor-de-Lys principle). The format is biochemical. The text has this: An exemplary assay method includes a 1536 well format of the SirT1 enzymatic assay that is based on the commercial “Fluor-de-Lys” assay principle by Biomol, which is fluorogenic (www.biomol.com/store/Product_Data_PDFs/ak500.pdf). In this assay, deacetylation of the e-amino function of a lysyl residue is coupled to a fluorogenic “development step that is dependent on the unblocked e-amino functionality and generates fluorescent aminomethylcoumarin. Fluorescence can be read on a commercial macroscopic reader.

`NC(=O)C1CCCc2c1[nH]c1ccccc21` (stereo not shown) [Compound 5, 2,3,4,9-Tetrahydro-1H-carbazole-1-carboxylic acid amide] displayed an IC50 of 1 to 10 µM.
